The target of this assay is PHD1 enzyme (residues 1-407) (Homo sapiens (Human), UniProt Q96KS0). As to the kind of experiment: PHD1 Enzyme Assay (UPLC-MS detection of hydroxylated peptide product). The format is biochemical. Conditions: 20 nM, 60 min pre-incubation at room temperature.

By UniProt entry, the sequences of proteins in these tests, tags left out.
UniProt Q96KS0, whole entry: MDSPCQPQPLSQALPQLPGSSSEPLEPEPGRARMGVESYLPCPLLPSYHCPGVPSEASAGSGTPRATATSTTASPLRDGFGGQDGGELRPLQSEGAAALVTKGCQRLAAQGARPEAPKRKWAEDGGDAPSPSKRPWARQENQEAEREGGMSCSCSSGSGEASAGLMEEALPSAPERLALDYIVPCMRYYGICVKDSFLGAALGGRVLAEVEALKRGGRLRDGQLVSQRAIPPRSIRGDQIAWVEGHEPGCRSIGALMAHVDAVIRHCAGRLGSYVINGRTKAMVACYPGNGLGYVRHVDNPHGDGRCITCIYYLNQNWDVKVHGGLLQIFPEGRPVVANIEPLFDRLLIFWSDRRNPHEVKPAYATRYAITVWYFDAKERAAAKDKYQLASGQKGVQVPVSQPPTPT

`N#Cc1ccc(-c2cc(C(=O)N3CCCC3)cc3ncnn23)cc1` [Example 43, 4-[7-(pyrrolidine-1-carbonyl)-[1,2,4]triazolo[1,5-a]pyridin-5-yl]benzonitrile] gave a half-inhibitory concentration (IC50) of 1840 nM. The value for `CC(C)(C)OC(=O)Nc1cc(-c2ccc(C#N)cc2F)n2ncnc2c1` [Example 242, tert-Butyl N-[5-(4-cyano-2-fluorophenyl)-[1,2,4]triazolo[1,5-a]pyridin-7-yl]carbamate] was 381 nM; that for `Cc1cc(C#N)c(F)cc1-c1cc(Cl)cc2ncnn12` [Example 235, 4-{7-Chloro-[1,2,4]triazolo[1,5-a]pyridin-5-yl}-2-fluoro-5-methylbenzonitrile] was 1690 nM; that for `CN(C)CCCNc1cc(-c2ccc(C#N)cc2)n2ncnc2n1` [Example 88, 4-(5-{[3-(dimethylamino)propyl]amino}-[1,2,4]triazolo[1,5-a]pyrimidin-7-yl)benzonitrile] was 29 nM.

In turn, `N#Cc1ccc(-c2cc(C(=O)NCCN3CCOCC3)cc3ncnn23)cc1` [Example 64, 5-(4-cyanophenyl)-N-[2-(morpholin-4-yl)ethyl]-[1,2,4]triazolo[1,5-a]pyridine-7-carboxamide] gave an IC50 of 669 nM.

Regarding `N#Cc1ccc(-c2cc(CNCC3CCOC3)cc3ncnn23)cc1` (stereo not shown) [Example 193, 4-(7-{[(oxolan-3-ylmethyl)amino]methyl}-[1,2,4]triazolo[1,5-a]pyridin-5-yl)benzonitrile], the IC50 was 4800 nM. For `CN(C)CCN(C)c1cc(-c2ccc(C#N)cc2)n2ncnc2n1` [Example 87] the value was 119 nM. For `N#Cc1ccc(-c2cc(N)cc3ncnn23)c(Cl)c1` [Example 259, 4-{7-Amino-[1,2,4]triazolo[1,5-a]pyridin-5-yl}-3-chlorobenzonitrile] the value was 205 nM; for `N#Cc1ccc(-c2cc(NC=O)cc3ncnn23)cc1F` [Example 236, N-[5-(4-Cyano-3-fluorophenyl)-[1,2,4]triazolo[1,5-a]pyridin-7-yl]formamide], 65 nM; for `CC(C)(O)CNc1cc(-c2ccc(C#N)cc2)n2ncnc2c1` [Example 110, 4-{7-[(2-hydroxy-2-methylpropyl)amino]-[1,2,4]triazolo[1,5-a]pyridin-5-yl}benzonitrile], 166 nM. Take `N#Cc1ccc(-c2cc(NC(=O)Nc3ccccc3)cc3ncnn23)cc1F` [Example 150, 3-[5-(4-Cyano-3-fluorophenyl)-[1,2,4]triazolo[1,5-a]pyridin-7-yl]-1-phenylurea]: the IC50 worked out at 12 nM. The value for `N#Cc1ccc(-c2cc(NC(=O)OC3CCOC3)cc3ncnn23)cc1F` (stereo not shown) [Example 200, oxolan-3-yl N-[5-(4-cyano-3-fluorophenyl)-[1,2,4]triazolo [1,5-a]pyridin-7-yl]carbamate] was 79 nM; that for `COc1cccc(NC(=O)c2cc(-c3ccc(C#N)cc3)n3ncnc3c2)c1` [Example 47, 5-(4-cyanophenyl)-N-(3-methoxyphenyl)-[1,2,4]triazolo[1,5-a]pyridine-7-carboxamide] was 470 nM.

`CN(C)c1cc(-c2ccc(C#N)cc2)n2ncnc2n1` [Example 82, 4-[5-(dimethylamino)-[1,2,4]triazolo[1,5-a]pyrimidin-7-yl]benzonitrile] showed a 50% inhibitory concentration (IC50) of 11 nM. `CC1CCCN1c1cc(-c2ccc(C#N)cc2)n2ncnc2n1` (stereo not shown) [Example 89, 4-[5-(2-methylpyrrolidin-1-yl)-[1,2,4]triazolo[1,5-a]pyrimidin-7-yl]benzonitrile] displayed an IC50 of 360 nM. `Cc1nc(C#N)nc(C)c1-c1cccc2ncnn12` [Example 211, 4,6-Dimethyl-5-{[1,2,4]triazolo[1,5-a]pyridin-5-yl}pyrimidine-2-carbonitrile] registered an IC50 of 25 nM. The value for `N#Cc1ccc(-c2cc(NC(=O)C3CC3)cc3ncnn23)cc1F` [Example 174, N-[5-(4-cyano-3-fluorophenyl)-[1,2,4]triazolo[1,5-a]pyridin-7-yl]cyclopropanecarboxamide] was 34 nM. For `COCc1cc(-c2ccc(C#N)cc2)n2ncnc2c1` [Example 224, 4-[7-(Methoxymethyl)-[1,2,4]triazolo[1,5-a]pyridin-5-yl]benzonitrile] the value was 3090 nM; for `N#Cc1ccc(-c2c(F)c(N)cc3ncnn23)cc1` [Example 181, 4-{7-Amino-6-fluoro-[1,2,4]triazolo[1,5-a]pyridin-5-yl}benzonitrile], 325 nM; for `N#Cc1ccc(-c2cc(C3CC3)cc3ncnn23)cc1` [Example 42, 4-{7-Cyclopropyl-[1,2,4]triazolo[1,5-a]pyridin-5-yl}benzonitrile], 138 nM. With `Cc1cc(C#N)ccc1-c1cc(NCC2CC2)nc2ncnn12` [Example 256, 4-{5-[(Cyclopropylmethyl)amino]-[1,2,4]triazolo[1,5-a]pyrimidin-7-yl}-3-methylbenzonitrile], the IC50 is 92 nM. The molecule `CC1(C(=O)Nc2cc(-c3ccc(C#N)c(F)c3)n3ncnc3c2)CC1` [Example 163, N-[5-(4-cyano-3-fluorophenyl)-[1,2,4]triazolo[1,5-a]pyridin-7-yl]-1-methylcyclopropane-1-carboxamide] gave an IC50 of 88 nM.

For the molecule `N#Cc1ccc(-c2cc(NC(=O)C3CC3)cc3ncnn23)cc1` [Example 122, N-[5-(4-cyanophenyl)-[1,2,4]triazolo[1,5-a]pyridin-7-yl]cyclopropanecarboxamide], the concentration for half-maximal inhibition (IC50) came to 70 nM. For `Cc1cc(C#N)ncc1-c1cc(N)cc2ncnn12` [Example 248, 5-{7-Amino-[1,2,4]triazolo[1,5-a]pyridin-5-yl}-4-methylpyridine-2-carbonitrile] the value was 35 nM; for `N#Cc1ccc(-c2cc(CNCC(F)(F)F)cc3ncnn23)cc1` [Example 184, 4-(7-{[(2,2,2-trifluoroethyl)amino]methyl}-[1,2,4]triazolo[1,5-a]pyridin-5-yl)benzonitrile], 870 nM; for `N#Cc1ccc(-c2cc(N3CCCC(N4CCCC4)C3)nc3ncnn23)cc1` (stereo not shown) [Example 76, 4-{5-[3-(pyrrolidin-1-yl)piperidin-1-yl]-[1,2,4]triazolo[1,5-a]pyrimidin-7-yl}benzonitrile], 969 nM. For `COc1cccc(CNCc2cc(-c3ccc(C#N)cc3)n3ncnc3c2)c1` [Example 190, 4-[7-({[(3-methoxyphenyl)methyl]amino}methyl)-[1,2,4]triazolo[1,5-a]pyridin-5-yl]benzonitrile] the value was 1700 nM. For `Cc1nc(C#N)ccc1-c1cc(Cl)cc2ncnn12` [Example 20, 5-{7-chloro-[1,2,4]triazolo[1,5-a]pyridin-5-yl}-6-methylpyridine-2-carbonitrile], the IC50 was determined as 1960 nM. For `COC(C)(C)C(=O)Nc1cc(-c2ccc(C#N)c(F)c2)n2ncnc2c1` [Example 170, N-[5-(4-cyano-3-fluorophenyl)-[1,2,4]triazolo[1,5-a]pyridin-7-yl)-2-methoxy-2-methylpropanamide] the value was 3020 nM; for `N#Cc1ccc(-c2cc(N3CCCC3C3CC3)nc3ncnn23)cc1` (stereo not shown) [Example 93, 4-[5-(2-cyclopropylpyrrolidin-1-yl)-[1,2,4]triazolo[1,5-a]pyrimidin-7-yl]benzonitrile], 129 nM. The molecule `C[C@H]1CCCN1C(=O)c1cc(-c2ccc(C#N)cc2)n2ncnc2c1` [Example 45, 4-{7-[(2S)-2-methylpyrrolidine-1-carbonyl]-[1,2,4]triazolo[1,5-a]pyridin-5-yl}benzonitrile] yielded an IC50 of 755 nM. The value for `N#Cc1ccc(-c2cc(OCCN3CCCC3)cc3ncnn23)cc1F` [Example 130, 2-fluoro-4-{7-[2-(pyrrolidin-1-yl)ethoxy]-[1,2,4]triazolo[1,5-a]pyridin-5-yl}benzonitrile] was 139 nM; that for `N#Cc1ccc(-c2cc(N3CCCC3=O)cc3ncnn23)cc1F` [Example 134, 2-fluoro-4-[7-(2-oxopyrrolidin-1-yl)-[1,2,4]triazolo[1,5-a]pyridin-5-yl]benzonitrile] was 229 nM.

On to `N#Cc1ccc(-c2cc(NC(=O)C3CCOC3)cc3ncnn23)cc1F` (stereo not shown) [Example 162, N-[5-(4-cyano-3-fluorophenyl)-[1,2,4]triazolo[1,5-a]pyridin-7-yl]oxolane-3-carboxamide], for which the midpoint of inhibition, the IC50, lay at 117 nM.

`CCCCNC(=O)c1cc(-c2ccc(C#N)cc2)n2ncnc2c1` [Example 60, N-butyl-5-(4-cyanophenyl)-[1,2,4]triazolo[1,5-a]pyridine-7-carboxamide]: the 50% inhibitory concentration (IC50) was 377 nM. For `N#Cc1ccc(-c2cc(O)cc3ncnn23)cc1` [Example 218, 4-{7-Hydroxy-[1,2,4]triazolo[1,5-a]pyridin-5-yl}benzonitrile] the value was 233 nM. The value for `N#Cc1ccc(-c2cc(N3CCOC3=O)cc3ncnn23)cc1F` [Example 135, 2-fluoro-4-[7-(2-oxo-1,3-oxazolidin-3-yl)-[1,2,4]triazolo[1,5-a]pyridin-5-yl]benzonitrile] was 240 nM.

What is called IC50 is the concentration that gives 50% inhibition.
